# Source: PubChem (National Center for Advancing Translational Sciences (NCATS))
# The list is not random: actives were taken first. Their share in the collection is about 16%.
# TDP1 inh – TDP1 (human) enzyme inhibition. Q9NUW8. recombinant TDP1, AlphaScreen DNA substrate cleavage. Potency, µM (highest dose often 130 µM), for inactives: top-dose activity change, negative = inhibition, hits mostly inhibitors. actives 0.28% (n = 350,000). AID 485290; further: potency means the concentration at half of the fitted maximal effect; on the % scale 0 is the no-effect control and ±100 the full control effect; nearly all actives have a fitted effect of over 40% in size
#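 Tdp1 1 nM final; 15 min RT w/ cpd; substrate 15 nM, 5 min; beads 10 ug/ml, 10 min; AlphaScreen read. Neg ctrl: no enzyme.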
# DT40 TDP1 CPT – DT40-hTDP1 cell growth loss with CPT; actives 12% (n = 420,000); Potency, µM (series often up to 46.2 µM), for the others: at the highest dose activity change, negative = growth inhibition, usual class: inhibitors; chicken DT40 Tdp1-/-;hTDP1 cells + 20 nM CPT, ATP luminescence, 48 h; further: potency means the concentration at half of the fitted maximal effect; on the % scale 0 is the no-effect control and ±100 the full control effect; nearly all actives have a fitted effect of over 55% in size
#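 Chicken DT40 Tdp1-/- cells stably complemented with human TDP1 were seeded at 400 cells/well in medium containing 20 nM camptothecin, exposed to pin-transferred compounds, and grown at 37 °C for at least 48 hr. Viability was read as ATP luminescence.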
# uPA surface inh – inhibitors of cell surface uPA generation; cell surface uPA generation assay, qHTS; Potency, µM (titrated, usually from 38.3 µM), for the others: at the highest dose activity change, negative = inhibition, hits mostly inhibitors; actives 0.31% (n = 330,000); active means well fitted inhibition curve with a large enough effect; inconclusive means small, poorly fitted or top-dose-only effect; inactive means no such curve, though single readings can be large or run the other way; tested in mouse RAW 264.7 cells; further: potency means the concentration at half of the fitted maximal effect; on the % scale 0 is the no-effect control and ±100 the full control effect; nearly all actives have a fitted effect of over 55% in size
# DT40 TDP1 no CPT – qHTS for Inhibitors of human tyrosyl-DNA phosphodiesterase 1 (TDP1): qHTS in cells in absence of CPT. Potency, µM (top dose mostly 46.2 µM), for inactives: top-dose activity change, negative = growth inhibition, usual class: inhibitors. actives 15% (n = 420,000). DT40 Tdp1-/- hTDP1 cells, no CPT, ATP luminescence, 48 h; further: potency means the concentration at half of the fitted maximal effect; on the % scale 0 is the no-effect control and ±100 the full control effect; nearly all actives have a fitted effect of over 55% in size
#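 A cellular qHTS used chicken DT40 cells lacking endogenous Tdp1 but carrying stably transfected human TDP1. Compounds were applied without camptothecin, and cell growth kinetics were judged by ATP-dependent luminescence after ≥48 hr.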
# miR-21 FLuc – miR-21 reporter, rising signal | 340,000 tested, under 10 active | AID 2288 | HeLa miR-21 FLuc reporter, luciferase, 48 h | Potency, µM (titrated, usually from 38.3 µM), for inactives: at the highest dose reporter change, positive = more light; active = well fitted rising curve with a large enough effect; inconclusive = small, poorly fitted or top-dose-only effect; inactive = no such curve, though single readings can be large or run the other way;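 further: % of control where 0% means no effect; miR-21 action dims this reporter so a rising signal means less miR-21 action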
#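 Using DMEM plus 10% FBS, HeLa miR-21-FLuc cells are incubated with test compounds (final up to about 40uM) for 48 hours; firefly luciferase signal is then imaged following reagent-mediated lysis.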
# An asterisk follows results filed as active; ? = inconclusive; nt = no result; ! = a repeat was not active. Unless noted, the call rests on the fitted dose curve; in most records, active means well fitted curve in the direction sought with a large enough effect; inconclusive means small, poorly fitted or top-dose-only effect, or another doubt; inactive means no such curve, though single readings can be large; an effect the other way counts as inactive or inconclusive.
# Value order – TDP1 inh | DT40 TDP1 CPT | uPA surface inh | DT40 TDP1 no CPT | miR-21 FLuc
CCCCC(=O)NS(=O)(=O)c1ccc(N=NN2CCOCC2)cc1
    5% | -6% | -1% | -6% | -3%
Cn1c(=O)c(CCc2ccccc2)nc2cnc(OCc3ccccc3)nc21
    nt | 12% | nt | -7% | nt
CC(C)NC(=NCc1ccc(Cl)cc1Cl)Nc1ccccc1
    nt | 13µM* | 8% | 5.2µM* | 20%
O=C(C/C=N\OCc1ccc(Cl)cc1Cl)Nc1ccccc1
    -10% | 16% | 1% | -12% | -4%
O=C(O)c1cc(S(=O)(=O)N2CCOCC2)ccc1N1CCCCC1
    0% | 7% | -2% | -22% | -1%
O=c1c2ccccc2sn1-c1cc(S(=O)(=O)N2CCOCC2)ccc1N1CCCC1
    -6% | 5.8µM* | nt | 12µM* | 7%
NC(=O)c1cc(S(=O)(=O)N2CCOCC2)ccc1N1CCCC1
    1% | 8% | -1% | -6% | -1%
O=c1c2ccccc2sn1-c1cc(S(=O)(=O)N2CCOCC2)ccc1N1CCOCC1
    -1% | 4.5µM* | -4% | 4.5µM* | 28%
O=c1c2ccccc2sn1-c1cc(S(=O)(=O)N2CCOCC2)ccc1N1CCCCC1
    1% | 2.5µM* | nt | 5.6µM* | nt
Cc1cc(NC(=O)CSc2sc3c(O)cc(=O)[nH]c3c2C#N)ccc1Br
    0% | 7% | 1% | 13% | 17%

# Some of the entries above, reformatted.
Structure | TDP1 inh | DT40 TDP1 CPT | uPA surface inh | DT40 TDP1 no CPT | miR-21 FLuc
Cn1c(=O)c(CCc2ccccc2)nc2cnc(OCc3ccccc3)nc21 | nt | 12% | nt | -7% | nt
CC(C)NC(=NCc1ccc(Cl)cc1Cl)Nc1ccccc1 | nt | 13µM* | 8% | 5.2µM* | 20%
O=C(C/C=N\OCc1ccc(Cl)cc1Cl)Nc1ccccc1 | -10% | 16% | 1% | -12% | -4%
O=C(O)c1cc(S(=O)(=O)N2CCOCC2)ccc1N1CCCCC1 | 0% | 7% | -2% | -22% | -1%
O=c1c2ccccc2sn1-c1cc(S(=O)(=O)N2CCOCC2)ccc1N1CCCC1 | -6% | 5.8µM* | nt | 12µM* | 7%
NC(=O)c1cc(S(=O)(=O)N2CCOCC2)ccc1N1CCCC1 | 1% | 8% | -1% | -6% | -1%

# Additional structures
# Value order – TDP1 inh | DT40 TDP1 CPT | uPA surface inh | DT40 TDP1 no CPT | miR-21 FLuc
COc1ccc(/C=C/C(=O)NC(C)(C)C)cc1S(=O)(=O)N1CCOCC1
    -3% | -13% | -1% | -7% | -9%
O=c1[nH]nc(Br)c(=O)n1C(c1ccccc1)c1ccccc1
    nt | 21µM* | 6% | ? | nt
CN1CCN(/C=N/c2sc3c(c2C#N)CCCCC3)CC1
    6% | ? | -9% | ? | -58%
CCN(/C=N/c1sc2c(c1C#N)CCCCC2)CC
    4% | ? | 1% | 21µM* | -64%
CC(C)CN(/C=N/c1sc2c(c1C#N)CCCCC2)CC(C)C
    -2% | 21µM* | 6% | 15µM* | -1%
Cc1ccc(-c2cc(-c3ccccc3)no2)c(O)c1
    -2% | -7% | -10% | -21% | 0%
Cc1ccc(O)c(-c2cc(-c3ccc(F)cc3)no2)c1
    nt | -23% | 10µM* | -16% | -44%
CC1(C)CC(=O)C(N=Nc2ccc(C(F)(F)F)cc2[N+](=O)[O-])=C(O)C1
    11% | 29µM* | 0% | 23µM* | -1%
COc1cc(CN2CCN(c3ncccn3)CC2)cc(OC)c1
    nt | -5% | 34% | -2% | -7%
CCC(C)(C)C1CCc2[nH]nc(C(=O)NCc3ccc(Cl)cc3)c2C1 (centres undefined)
    2% | ? | 13% | ? | nt
CCC(C)(C)C1CCc2[nH]nc(C(=O)NCc3ccccn3)c2C1 (centres undefined)
    -2% | 15µM* | -13% | 23µM* | nt
CCC(C)(C)C1CCc2[nH]nc(C(=O)NCCCNC(=O)OC(C)(C)C)c2C1 (centres undefined)
    -3% | ? | 2% | 18µM* | nt
COc1ccc(OC)c(NC(=O)COC(=O)CCCN2C(=O)c3ccccc3C2=O)c1
    0% | -6% | -3% | 2% | 0%
O=C(Nc1ccsc1C(=O)N1CCCC1)c1ccccc1
    3% | 16µM* | 4% | 21µM* | -2%
CC[N+]1(C)CCC(O)(c2ccc(OC)cc2)C(C(=O)c2ccc(OC)cc2)C1 (centres undefined)
    nt | 0.65µM* | -13% | 0.92µM* | nt
Cc1cc(C)c2c(NC(=O)c3ccccc3Cl)c(C(=O)Nc3ccc(C)c(C)c3)sc2n1
    7% | 8.2µM* | nt | 16µM* | -40%
CC(=O)N/C(=C\c1ccccc1)C(=O)OCC(=O)Nc1ccc(C)c(S(=O)(=O)N(C)C)c1
    0% | -21% | -9% | 6% | nt
CC(NC(=O)COC(=O)/C(=C/c1cccs1)c1cccs1)c1ccccc1 (centres undefined)
    1% | ? | -14% | 18µM* | 1%
Cc1ccc(NC(=O)COC(=O)/C(=C/c2cccs2)c2cccs2)cc1S(=O)(=O)N(C)C
    2% | 16µM* | -6% | 15µM* | 9%
NS(=O)(=O)c1cccc(NC(=O)COC(=O)/C(=C/c2cccs2)c2cccs2)c1
    8% | ? | 0% | 23µM* | 1%

# (more compounds)
# Assay codes – A = TDP1 inh; B = DT40 TDP1 CPT; C = uPA surface inh; D = DT40 TDP1 no CPT; E = miR-21 FLuc
> Cc1c(C(=O)N(C)Cc2ccccc2)oc2c(Cl)cccc12
  A: -4%	B: -9%	C: 0%	D: ?	E: -15%
> CCOCCCN1CN(Cc2ccccc2)CNC1=S
  A: -1%	B: 8%	C: -1%	D: 6%	E: -4%
> CCCCN1CN(Cc2ccccc2)CNC1=S
  A: 0%	B: 18µM*	C: -4%	D: ?	E: -1%
> Cc1nnsc1S(=O)c1ccc(Cl)c(Cl)c1 (centres undefined)
  A: nt	B: 10µM*	C: -8%	D: 15µM*	E: ?
> c1ccc(Cn2c(Sc3nnnn3-c3ccccc3)nnc2-c2ccccc2)cc1
  A: 7%	B: ?	C: ?	D: ?	E: 15%
> c1ccc2c(c1)OCCOCCOCCOCCOc1ccccc1OCCOCCOCCO2
  A: 3%	B: 15µM*	C: -6%	D: 18µM*	E: 15%
> CC(NC(=O)c1cc2cc(F)ccc2[nH]1)c1ccccc1 (centres undefined)
  A: nt	B: 18µM*	C: ?	D: ?	E: 0%
> O=C(O)c1cc2cc(F)ccc2[nH]1
  A: 89µM*!	B: -22%	C: 17%	D: -18%	E: -8%
> O=C(O)c1cc2cc(Cl)ccc2[nH]1
  A: 4%	B: 4%	C: 10%	D: -5%	E: nt
> COc1ccc(CNC(=O)c2cc(=O)c3ccc(C)c(C)c3o2)cc1
  A: nt	B: 13%	C: -2%	D: ?	E: 1%
> Cc1[nH]c2ccccc2c1C(c1ccccn1)c1c(C)[nH]c2ccccc12
  A: 9%	B: -6%	C: 5%	D: -27%	E: -5%
> CCCCCCCCCCCCCCCC[n+]1ccc(CC(O)c2c(C)[nH]c3ccccc23)c2ccccc21 (centres undefined)
  A: nt	B: 1.6µM*	C: nt	D: 1.3µM*	E: nt
> Cc1ccc(-c2[nH]c3cc(C(N)=O)ccc3c(=O)c2O)cc1
  A: -1%	B: ?	C: -7%	D: 18µM*	E: ?
> Cc1ccc(CNC(=O)c2ccc3c(=O)c(O)c(-c4ccc(C)cc4)[nH]c3c2)cc1
  A: 5%	B: 4.1µM*	C: ?	D: 6.5µM*	E: ?
> CCCNC(=O)c1ccc2c(=O)c(O)c(-c3ccc(C)cc3)[nH]c2c1
  A: 2%	B: ?	C: ?	D: ?	E: ?
> Cc1ccc(C2=NC3(CCCC3)N=C2SCC(=O)Nc2ccc3c(c2)OCCO3)cc1
  A: 4%	B: ?	C: -11%	D: -7%	E: 2%
> CC1CCC(C(C)C)C(OC(=O)CSc2nnc(N)s2)C1 (centres undefined)
  A: 2%	B: ?	C: -5%	D: -29%	E: -2%
> CC1CCC(C(C)C)C(OC(=O)Cn2c(-c3ccc(F)cc3)[n+](C)c3ccccc32)C1 (centres undefined)
  A: -1%	B: 2.3µM*	C: -7%	D: 2.3µM*	E: ?
